1 compound from patent US20060111327A1, “Derivatives of triptolide having a high immunosuppressive effect and high water solubility, and uses thereof” (priority 2002, published 2006) can be followed below.

The data set has as its system rat adjuvant-induced arthritis. As to conditions: in vivo, 0.025 mg/kg.

For the compound `CC(C)[C@]12O[C@H]1C1O[C@]13[C@]1(O[C@H]1C[C@H]1C4=C(CC[C@@]13C)C(=O)OC4)[C@@H]2OP(=O)([O-])[O-].[Na+].[Na+]` (stereo partly drawn) [WDY7, disodium triptolide-14-β-phosphate], the “safety coefficient LD50/effective dose” value is 32.
